Measured values taken from patent publication US12116358B2, “Substituted indoles and methods of use thereof” (EPIZYME, INC., priority 2018, dated 2024).

Target: T1, SETD2(1434-1711) (Homo sapiens, UniProt Q9BYW2)
T1 construct: SETD2 (1434-1711) Assay; catalogue N/A
T1 sequence (Q9BYW2 1434-1711): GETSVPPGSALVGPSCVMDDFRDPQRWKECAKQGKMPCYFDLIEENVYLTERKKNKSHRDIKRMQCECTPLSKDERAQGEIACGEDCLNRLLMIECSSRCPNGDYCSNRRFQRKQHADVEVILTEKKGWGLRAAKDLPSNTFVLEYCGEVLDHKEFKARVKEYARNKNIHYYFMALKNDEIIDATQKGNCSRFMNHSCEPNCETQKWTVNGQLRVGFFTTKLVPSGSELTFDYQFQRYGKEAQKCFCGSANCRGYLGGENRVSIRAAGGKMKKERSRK
Assay: SETD2 (1434-1711) assay
Assay type: biochemical

Cc1cccc2cc(C(=O)N[C@H]3CC[C@@H](NC(=O)CCN)CC3)[nH]c12 [compound 592]
IC50: > 50 µM
